Our source for the Ratio IC50 values is ChEMBL document CHEMBL5316318, “Structural Modification and Pharmacological Evaluation of Substituted Quinoline-5,8-diones as Potent NSD2 Inhibitors” (J Med Chem, 2023).

This assay can be described thus: Selectivity index, ratio of IC50 for EZH2 (unknown origin) to IC50 for human recombinant NSD2 (941 to 1240 residues).

Each structure is given as a SMILES string.

On to `CC#CC(=O)NC12CC(NC3=C(Cl)C(=O)c4cccnc4C3=O)(C1)C2`, for which the Ratio IC50 turned out to be 4.
